Where two headings read alike, the source gives them in different places.
Assays:
Wistar rats [1] = test system: Wistar rats
Excerpt: (§1) In-house bred, female Wistar rats weighing 190-230 g were divided in the following experimental groups (FIG. 1): (i) Control: rats treated i.p. during 7-13 days with saline (0.9% NaCl), once daily.
(§2) For the whole experiment, rats were individually allocated in metabolic cages under temperature and humidity controlled conditions. Animals were allowed to eat regular chow and drink water ad libitum. At different times, 24-hour urine and blood samples were obtained. Urine was collected in graduated vessels supplemented with 100 μL of 0.1% sodium azide and 1 ml oil to prevent contamination and evaporation, respectively. Subsequently, urine was cleared by centrifugation at 1,175×g, aliquoted and stored at −80° C. Blood was drawn from a small incision in the tail and collected in heparinised capillaries. These were immediately centrifuged at 12,000×g and plasma was stored at −80° C. At the end of the experiment, rats were anesthetized with sodium pentobarbital (10 mg/kg). The kidneys were perfused with heparinised saline through the abdominal aorta, and they were immediately dissected. The right kidney and one half of the left one were swiftly frozen by immersion in liquid nitrogen, and stored at −80° C. Eventually, they were used for Western blot studies. For such a purpose, frozen tissues were homogenized under freezing conditions by hammer-smashing, until a fine powder was obtained. The powder was also kept at −80° C. The second half of the left kidney was immersed in 3.7% paraformaldehyde at 4° C. during 14-16 hours. After it, tissue samples were processed for immunohistochemical studies.
(§3) Plasma and urine concentration of creatinine and blood urea nitrogen (BUN) were determined by an automated analysis system (Reflotron®, Roche Diagnostics, Barcelona, Spain) and commercial reactive strips (Roche Diagnostics, Barcelona, Spain), using 32 μL of plasma and urine. This method has a lower detection limit of 0.5 mg/dL for creatinine. Samples reading under 0.5 mg/dL creatinine were head-to-head re-assayed by the colorimetric method of Jaffe (Hervey, 1953. Nature, 171: 1125).
(§4) Urine protein concentration (mg/mL) was measured by the Bradford method (39). Daily protein excretion (mg/day) was obtained by multiplying urine protein concentration by the 24-hour urine flow (mL/day).
(§5) Urine NAG activity (arbitrary units, AU/mL), as an estimation of urine NAG concentration, was measured by a commercial enzymatic test (Roche Diagnostics, Barcelona, Spain) following the manufacturer's instructions. Urine NAG activity was converted into daily NAG excretion (AU/day) by multiplying urine NAG activity by 24-hour urine flow (mL/day).

[2] = test system: GM2 activator protein (GM2AP) in urine; conditions: single nephrotoxic dose of uranyl nitrate 5 mg/kg, urine 4 days after treatment inception
Excerpt: as §1
For the whole experiment, rats were individually allocated in metabolic cages under temperature and humidity controlled conditions. Animals were allowed to eat regular chow and drink water ad libitum. At different times, 24-hour urine and blood samples were obtained. Urine was collected in graduated vessels supplemented with 100 μL of 0.1% sodium azide and 1 ml oil to prevent contamination and evaporation, respectively. Subsequently, urine was cleared by centrifugation at 1,175×g, aliquoted and stored at −80° C. Blood was drawn from a small incision in the tail and collected in heparinised capillaries. […]
Protein extracts were obtained from 100 mg tissue homogenate powder, prepared by homogenizing the kidneys with a tissue mixer (Ultra-Turrax T8, IKA®-Werwe) at 4° C. in homogenization buffer (140 mM NaCl, 20 mM Tris-HCl pH=7.5, 0.5 Methylenediaminetetraacetic acid—EDTA-, 10% glycerol, 1% Igepal CA-630, 1 μg/mL aprotinin, 1 μg/mL leupeptin, 1 μg/mL pepstatin A, 1 mM phenylmethylsulphonyl fluoride—PMSF-). […] Protein concentration was measured with a commercial kit (BioRad) based on the Lowry method. […]
Protein concentration was determined by the Bradford method.

[3] = test system: GM2 activator protein (GM2AP) in urine; assay: Urinary GM2AP (Western blot) and renal function in humans treated with gentamicin; format: in vivo; conditions: hospitalized patients under gentamicin regime for 2 or 3 days
Excerpt: Supernatants were collected.
Urine samples from human hospitalized individuals under a gentamicin regime already in course for 2 or 3 days were obtained from the Hospital Universitario de Salamanca. As controls, the urine from age- and sex-matched individuals not receiving gentamicin was used.

Wistar rats [4] = assay: Time course of markers of nephrotoxicity under gentamicin 150 mg/kg/day; conditions: G-150, after inception of treatment
Excerpt: as §1
as §2, with “The powder was also kept at −80° C. The second half of the left kidney was immersed in 3.7% paraformaldehyde at 4° C. during 14-16 hours. After it, tissue samples were processed for immunohistochemical studies.” left out
as §3, with “This method has a lower detection limit of 0.5 mg/dL for creatinine.” left out
Urine protein concentration (mg/mL) was measured by the Bradford method (39). […]
Urine NAG activity (arbitrary units, AU/mL), as an estimation of urine NAG concentration, was measured by a commercial enzymatic test (Roche Diagnostics, Barcelona, Spain) following the manufacturer's instructions. […]

Wistar rats [5] = assay: Renal function characterization (plasma creatinine, BUN, urinary protein and NAG excretion) of gentamicin-treated rats; conditions: vs control
Excerpt: as §1, §2, §3, §4, §5

[6] = single UN 0.5 mg/kg immediately after gentamicin 50 mg/kg/day regime (G-50)
[7] = single UN 0.5 mg/kg only (after saline)

Substance: uranyl nitrate
- plasma creatinine concentration (Wistar rats [1]; UN 0.5 mg/kg one week of rest after gentamicin 50 mg/kg/day regime): increase
- plasma creatinine concentration (Wistar rats [1]; UN 0.5 mg/kg simultaneously with gentamicin 50 mg/kg/day (co-treatment)): increase
- proteinuria (urinary excretion of proteins) (Wistar rats [1]; single UN 0.5 mg/kg after G-50): proteinuria
- NAG excretion (Wistar rats [1]; single UN 0.5 mg/kg after G-50, day 11): increased
- plasma concentration of BUN (Wistar rats [1]; [6]): increases
- plasma concentration of creatinine (Wistar rats [1]; [6]): increases
- plasma concentration of BUN (Wistar rats [1]; [7]): No alterations
- plasma concentration of creatinine (Wistar rats [1]; [7]): No alterations
- urinary GM2AP (Western blot) [2]: high levels

Substance: gentamicin
- renal function (plasma creatinine, BUN, estimated GFR) [3]: within normal status
- day by which NAG excretion was increased (Wistar rats [4]): 4 days
- day by which creatinine clearance was altered (Wistar rats [4]): 4 days
- day by which plasma creatinine was increased (Wistar rats [4]): 4 days
- plasma concentration of BUN (Wistar rats [1]; rat, in vivo): No alterations
- plasma concentration of creatinine (Wistar rats [1]; rat, in vivo): No alterations
- plasma creatinine concentration (Wistar rats [5]; G-50, 7 days): not modified
- proteinuria (daily urinary excretion of proteins) (Wistar rats [5]; G-50, 7 days): no proteinuria
- urinary NAG excretion (Wistar rats [5]; G-50, 7 days): not modified
- plasma creatinine concentration (Wistar rats [5]; G-150, 7 days): profoundly altered
- proteinuria (daily urinary excretion of proteins) (Wistar rats [5]; G-150, 7 days): overt proteinuria
- urinary NAG excretion (Wistar rats [5]; G-150, 7 days): very increased

Source: patent US20120129721A1, “URINARY GM2 ACTIVATOR PROTEIN AS A MARKER OF ACUTE RENAL FAILURE OR THE RISK OF DEVELOPING ACUTE RENAL FAILURE” (priority 2009, published 2012)
